According to patent publication US20230158154A1, “CONJUGATES COMPRISING A PHOSPHORUS (V) AND A CAMPTOTHECIN MOIETY” (priority 2021, published 2023):

Assays:
[1] = test system: SKBR-3, N87, HCC-1569, HCC-78, OE-19, SK-GT-2 and SKOV-3; details: compared to Enhertu; in particular cell lines not highly overexpressing Her2
[2] = test system: Her2-negative cells Karpas-299 and DU-145; details: compared to Enhertu
[3] = test system: co-culture of SKBR-3 cells and MDA-MB-468 cells; test: Co-culture-based bystander assay by FACS; format: cell-based; details: 5:1 co-culture, 5 days; compared to Enhertu
Experimental: After 5 days incubation time, co-cultures were stained by αHer2-FITC (BioLegend) and Fixable Aqua Dead Cell Stain Kit (Thermo Fisher Scientific). As a readout for the bystander effect, the percentage of dead Her2-positive and -negative cells was determined by flow cytometry.

SKOV-3 cells = test: pHrodo-based internalization, Her2-positive cells; format: cell-based; details: 5 μg/ml, 1 h, 5 h, 24 h
[4] = test system: cultured cells of healthy human tissue; details: all tested tissue types; compared to Enhertu
MDA-MB-468 cells = details: 5 μg/ml; compared to Enhertu
[5] = test system: Her2-positive target cells SKBR-3, SKOV-3 and N87; test: Calcein release-based ADCC assay; format: cell-based; details: NK cells, effector-to-target 3:1; compared to Enhertu
Experimental: For the Calcein release-based antibody-dependent cellular cytotoxicity (ADCC) assay, frozen primary healthy donor-derived natural killer (NK) cells, isolated from peripheral blood mononuclear cells (PBMCS) by negative selection, were purchased as effector cells (Lonza). Her2-positive target cells were stained with 16 μM Calcein AM (Thermo Fisher Scientific). […] Cells permeabilized with 2.5% Triton X (Sigma-Aldrich) served as positive control. Supernatants were transferred to a flat black non-binding 96-well plate (Greiner Bio-One) and fluorescence was measured at 485/535 nM via the Infinite M1000 Pro reader (Tecan).
The percent specific killing was calculated by dividing the Calcein released by antibody-mediated killing minus background Calcein release (NKs+targets) from Calcein released by Triton X-permeabilized cells (maximum killing) minus background Calcein release (targets only). We determined either maximum ADCC/specific killing at 15 μg/ml or generated a concentration-dependent killing curve that was analyzed by a non-linear regression using a one-site specific binding model.

NCI-N87 cells = test: NCI-N87 xenograft in CB17-Scid mice; format: in vivo
Experimental: All animal experiments were conducted in accordance with German animal welfare law and approved by local authorities. […] Treatment was initiated when tumours reached a mean tumour volume of 0.1-0.15 cm^3. […] Tumour volumes, body weights and general health conditions were recorded throughout the whole study.

Trastuzumab-P5(PEG24)-VC-PAB-Exatecan DAR8: "ADC Trastuzumab-P5(PEG24)-VC-PAB-Exatecan having a drug to antibody ratio of 8 (denoted as "DAR8")"
in vitro efficacy [1]: Better in vitro efficacy | bystander effect [2]: Better bystander effect | bystander effect [3]: Slightly better bystander effect | internalization into targeted Her2 cells (SKOV-3 cells): similar | off-target toxicity [4]: less pronounced | undesired internalization into target negative cells (MDA-MB-468 cells): lower | ADCC-effect (percent specific killing) [5]: better ADCC-effect | tumor response (NCI-N87 cells; 0.5 mg/kg once, initial 7 days): tumor regression | tumor shrinkage compared to Enhertu (NCI-N87 cells; all treatment groups (0.25, 0.5, 1, 2 mg/kg once), initial period of 7 days): greater tumor shrinkage | in vivo efficacy, expected outcome (NCI-N87 cells; study currently ongoing): same/comparable outcome
